Measured values from patent US20260000700A1, “TARGETED LINEAR CONJUGATES COMPRISING POLYETHYLENEIMINE AND POLYETHYLENE GLYCOL AND POLYPLEXES COMPRISING THE SAME” (TARGIMMUNE THERAPEUTICS AG, priority 2022, published 2026).

How the values were obtained:
[1] = Polyplex size distribution and PDI by DLS; assay type: physicochemical; conditions: triconjugate:poly(IC) polyplex, 0.1875 mg/mL, HBG pH 7.2, N/P 4; for DLS (nm), DTS1070 / PDI, DTS1070: DTS1070 cuvette, samples 2× diluted; for DLS (nm), ZEN2112 (Quartz) / PDI, ZEN2112 (Quartz): ZEN2112 quartz cuvette
[2] = Polyplex ζ-potential (PALS/ELS); assay type: physicochemical; conditions: triconjugate:poly(IC) polyplex, 0.1875 mg/mL, HBG pH 7.2, N/P 4; DTS1070 cuvette, samples 2× diluted
[3] = tested on: RencaEGFR M1 H cells (high expression of human EGFR); test: Plasmid pCMV-hIFNβ delivery, hIFNβ ELISA of medium; conditions: N/P 3 and 4, 24 hours

Substance	DLS (nm), DTS1070 [1]	PDI, DTS1070 [1]	DLS (nm), ZEN2112 (Quartz) [1]	PDI, ZEN2112 (Quartz) [1]	ζ- pot (mV), DTS1070 [2]	IFNβ expression and secretion, linear versus random triconjugate [3]
LPEI−/−[N3:SCO]-PEG36-[MAL-S]-DUPA	132 nm	0.153	143 nm	0.156	34.0 mV	
LPEI−/−[N3:DBCO]-PEG36-[(NH2)MAL-S]-DUPA	148 nm	0.153	154 nm	0.151	34.5 mV	
LPEI−/−[N3:DBCO]CONH-PEG36-[MAL-S]-DUPA	133 nm	0.147	140 nm	0.120	34.5 mV	
LPEI−/−[N3:DBCO]-PEG36-DUPA	123 nm	0.138	140 nm	0.120	35.2 mV	
LPEI−/−[N3:CliCr®]-PEG36-DUPA		0.151			26.2 mV	
LPEI−/−[N3:DBCO]-PEG36-[S-MAL]-DUPA		0.153			24.7 mV	
LPEI−/−[N3:BCN]-PEG36-[MAL-S]-DUPA		0.214	145 nm	0.166	33.9 mV	
LPEI−/−[N3:DBCO]-PEG36-hEGF						significant advantage over the respective random delivery vector
